From the NIST ThermoML archive (doi:10.1021/je9008969)
Numbers after ± are expanded uncertainties.

Test: cn = amount concentration of the nth substance listed, in mol/dm3
Settings: 298.15 K, 101 kPa, Liquid, Alternating current cell with electrodes

Molecule CCC[N+](CCC)(CCC)CCC.[O-][Cl+3]([O-])([O-])[O-] [tetrapropylammonium perchlorate] + CC(=O)CC(C)C has a molar conductivity (c1 = 6.329e-05) of 0.00855 ± 0.00017 S·m2/mol, a molar conductivity (c1 = 8.893e-05) of 0.00817 ± 0.00016 S·m2/mol and a molar conductivity (c1 = 0.0001214) of 0.00778 ± 0.00016 S·m2/mol. The molar conductivity (c1 = 0.000152) was 0.00744 ± 0.00015 S·m2/mol, the molar conductivity (c1 = 0.000209) was 0.00698 ± 0.00014 S·m2/mol and the molar conductivity (c1 = 0.0002751) was 0.00657 ± 0.00013 S·m2/mol. The molar conductivity (c1 = 0.00037) was 0.00612 ± 0.00012 S·m2/mol, the molar conductivity (c1 = 0.0004913) was 0.00569 ± 0.00011 S·m2/mol and the molar conductivity (c1 = 0.0006591) was 0.00526 ± 0.00011 S·m2/mol. For the same molecule, the molar conductivity (c1 = 0.0008839) was 0.00484 ± 9.7e-05 S·m2/mol, the molar conductivity (c1 = 0.001183) was 0.00444 ± 8.9e-05 S·m2/mol and the molar conductivity (c1 = 0.001582) was 0.00406 ± 8.1e-05 S·m2/mol. It also gave a molar conductivity (c1 = 0.002124) of 0.00371 ± 7.4e-05 S·m2/mol, a molar conductivity (c1 = 0.002843) of 0.00338 ± 6.8e-05 S·m2/mol and a molar conductivity (c1 = 0.003794) of 0.00308 ± 6.2e-05 S·m2/mol.
